This experiment has as its target T1, 3-dehydroquinate dehydratase (Helicobacter pylori (strain ATCC 700392 / 26695) (Campylobacterpylori), UniProt Q48255).
T1 sequence (Q48255 whole entry): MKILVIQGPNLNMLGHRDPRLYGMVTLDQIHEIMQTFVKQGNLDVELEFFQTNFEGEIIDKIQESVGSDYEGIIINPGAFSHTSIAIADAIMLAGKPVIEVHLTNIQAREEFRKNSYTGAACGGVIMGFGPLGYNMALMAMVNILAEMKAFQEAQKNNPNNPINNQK
The experiment is described as follows: Inhibition of Helicobacter pylori DHQ2 by UV spectroscopy.

Molecules are shown by their SMILES. pKi: −log10 of the molar value.

`Cc1ccc2sc(COC3=C[C@@](O)(C(=O)O)C[C@@H](O)[C@@H]3O)cc2c1` had a pKi of 6.89.

The term pKi denotes −log10 of the Ki, conventionally taken in molar units. A low value points to a large Ki.

For the origin of these results see ChEMBL document CHEMBL1156760, “Synthesis and biological evaluation of new nanomolar competitive inhibitors of Helicobacter pylori type II dehydroquinase. Structural details of the role of the aromatic moieties with essential residues” (J Med Chem, 2010).
